Source: patent US9539256B2 (THE BOARD OF REGENTS OF THE UNIVERSITY OF TEXAS SYSTEM, priority 2012, dated 2017)
Where two headings read alike, the source gives them in different places.

By UniProt entry, the sequences of proteins in these tests, tags left out.
UniProt Q9EQZ6, whole entry: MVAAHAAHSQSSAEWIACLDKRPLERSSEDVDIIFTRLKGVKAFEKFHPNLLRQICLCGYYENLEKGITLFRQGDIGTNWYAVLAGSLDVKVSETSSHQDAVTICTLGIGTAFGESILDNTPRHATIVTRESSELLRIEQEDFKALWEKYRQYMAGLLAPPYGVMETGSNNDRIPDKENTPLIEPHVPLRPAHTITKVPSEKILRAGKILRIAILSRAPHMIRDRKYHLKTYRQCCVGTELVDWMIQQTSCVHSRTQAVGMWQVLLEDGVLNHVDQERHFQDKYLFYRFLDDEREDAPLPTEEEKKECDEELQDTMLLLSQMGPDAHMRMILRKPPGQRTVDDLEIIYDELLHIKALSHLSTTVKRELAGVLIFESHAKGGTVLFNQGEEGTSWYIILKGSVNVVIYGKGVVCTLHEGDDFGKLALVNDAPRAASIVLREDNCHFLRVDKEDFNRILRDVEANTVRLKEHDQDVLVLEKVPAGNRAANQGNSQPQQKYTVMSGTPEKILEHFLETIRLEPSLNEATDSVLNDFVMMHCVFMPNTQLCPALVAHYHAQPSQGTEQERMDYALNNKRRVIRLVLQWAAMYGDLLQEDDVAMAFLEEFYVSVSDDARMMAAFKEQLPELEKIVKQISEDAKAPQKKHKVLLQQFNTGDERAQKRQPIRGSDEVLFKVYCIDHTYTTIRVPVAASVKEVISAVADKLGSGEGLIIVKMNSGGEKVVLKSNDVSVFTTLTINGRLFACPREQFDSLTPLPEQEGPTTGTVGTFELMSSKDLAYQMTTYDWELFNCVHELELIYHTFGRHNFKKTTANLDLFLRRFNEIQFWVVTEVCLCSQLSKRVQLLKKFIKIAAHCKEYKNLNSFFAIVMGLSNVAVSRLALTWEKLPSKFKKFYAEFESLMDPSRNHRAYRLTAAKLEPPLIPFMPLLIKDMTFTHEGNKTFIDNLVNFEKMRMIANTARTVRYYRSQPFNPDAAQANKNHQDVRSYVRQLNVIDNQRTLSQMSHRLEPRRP
UniProt Q8WZA2, whole entry: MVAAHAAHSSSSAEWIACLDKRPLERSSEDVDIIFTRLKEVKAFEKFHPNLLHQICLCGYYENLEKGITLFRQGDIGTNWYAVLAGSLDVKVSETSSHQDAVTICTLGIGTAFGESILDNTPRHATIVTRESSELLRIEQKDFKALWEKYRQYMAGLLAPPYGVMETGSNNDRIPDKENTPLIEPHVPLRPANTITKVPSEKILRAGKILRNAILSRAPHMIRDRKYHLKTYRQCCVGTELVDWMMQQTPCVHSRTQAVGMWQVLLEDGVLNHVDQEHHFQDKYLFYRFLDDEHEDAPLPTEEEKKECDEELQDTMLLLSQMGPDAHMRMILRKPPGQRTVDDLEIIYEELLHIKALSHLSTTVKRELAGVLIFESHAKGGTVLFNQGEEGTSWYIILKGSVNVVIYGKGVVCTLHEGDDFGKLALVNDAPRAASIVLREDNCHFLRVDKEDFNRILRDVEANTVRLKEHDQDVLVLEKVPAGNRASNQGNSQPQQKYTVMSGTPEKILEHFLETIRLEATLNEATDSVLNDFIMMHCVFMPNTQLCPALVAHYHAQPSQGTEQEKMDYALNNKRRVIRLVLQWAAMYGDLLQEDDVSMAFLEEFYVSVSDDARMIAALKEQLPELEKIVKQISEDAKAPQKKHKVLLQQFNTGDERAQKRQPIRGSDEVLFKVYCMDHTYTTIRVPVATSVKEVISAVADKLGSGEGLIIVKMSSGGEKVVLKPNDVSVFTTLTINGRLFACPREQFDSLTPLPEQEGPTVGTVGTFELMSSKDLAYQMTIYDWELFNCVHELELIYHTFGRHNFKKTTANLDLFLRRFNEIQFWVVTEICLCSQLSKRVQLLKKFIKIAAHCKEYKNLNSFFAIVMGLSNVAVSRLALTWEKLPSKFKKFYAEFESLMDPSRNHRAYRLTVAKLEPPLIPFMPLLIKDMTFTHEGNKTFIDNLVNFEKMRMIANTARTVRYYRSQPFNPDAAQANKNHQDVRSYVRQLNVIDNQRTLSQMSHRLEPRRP
UniProt O95398, whole entry: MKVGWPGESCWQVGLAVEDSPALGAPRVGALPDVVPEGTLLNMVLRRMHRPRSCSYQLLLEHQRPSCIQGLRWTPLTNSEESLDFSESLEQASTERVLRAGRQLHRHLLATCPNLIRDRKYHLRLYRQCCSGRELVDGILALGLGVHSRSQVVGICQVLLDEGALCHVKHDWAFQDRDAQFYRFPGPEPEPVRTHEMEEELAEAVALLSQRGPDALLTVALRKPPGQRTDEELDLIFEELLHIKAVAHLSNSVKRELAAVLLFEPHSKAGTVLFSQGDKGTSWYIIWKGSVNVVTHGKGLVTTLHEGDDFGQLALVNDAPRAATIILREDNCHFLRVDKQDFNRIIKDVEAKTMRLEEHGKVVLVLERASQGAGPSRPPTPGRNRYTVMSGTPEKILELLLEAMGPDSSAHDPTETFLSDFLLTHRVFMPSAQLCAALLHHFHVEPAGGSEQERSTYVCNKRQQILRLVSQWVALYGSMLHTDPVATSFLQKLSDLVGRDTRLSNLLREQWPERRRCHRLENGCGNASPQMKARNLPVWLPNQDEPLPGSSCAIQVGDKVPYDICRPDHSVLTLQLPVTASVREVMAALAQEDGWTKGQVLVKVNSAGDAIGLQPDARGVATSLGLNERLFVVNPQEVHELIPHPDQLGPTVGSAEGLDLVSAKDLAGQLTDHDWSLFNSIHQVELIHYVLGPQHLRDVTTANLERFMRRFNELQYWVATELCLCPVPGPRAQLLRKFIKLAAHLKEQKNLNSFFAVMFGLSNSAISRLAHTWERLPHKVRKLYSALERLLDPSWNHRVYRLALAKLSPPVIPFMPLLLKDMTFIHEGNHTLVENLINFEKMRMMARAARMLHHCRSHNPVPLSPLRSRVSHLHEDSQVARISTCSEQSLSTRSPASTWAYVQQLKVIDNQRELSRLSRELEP

Assays:
[1] = molecular target: EPAC2 (UniProt Q9EQZ6); experiment: 8-NBD-cAMP competition binding to EPAC2; settings: for Relative Potency (RA): RA = IC50, cAMP/IC50, compound; for IC50: read-out: Apparent IC50, competing with 8-NBD-cAMP in binding EPAC2
[2] = tested on: type I PKA holoenzyme; experiment: PKA counter screening, type I holoenzyme; format: biochemical; settings: 25 μM compound; tested form: iodide
Protocol: (§1) Kinase activity of the type I and II PKA holoenzyme are measured spectrophotometrically in a 96-well plate with a coupled enzyme assay as described previously (Cook et al. (1982) Biochemistry 21: 5794-5799). In this assay, the formation of ADP is coupled to the oxidation of NADH by the pyruvate kinase/lactate dehydrogenase reactions so the reaction rate can be determined by following the oxidation of NADH, reflected by a decrease in absorbance at 340 nm. […] Reactions are pre-equilibrated at room temperature and initiated by adding the Kemptide substrate (final concentration 0.26 mM).

[3] = tested on: type II PKA holoenzyme; experiment: PKA counter screening, type II holoenzyme; format: biochemical; settings: 25 μM compound; tested form: iodide
Protocol: as §1

[4] = molecular target: EPAC2 (Homo sapiens, UniProt Q8WZA2); experiment: Rap1 activation assay in HEK293/EPAC2 cells; settings: pre-treatment with 10 μM compound, tested form: iodide
[5] = molecular target: T1, EPAC1 (Homo sapiens, UniProt O95398); experiment: Rap1 activation assay in HEK293/EPAC1 cells; settings: tested form: iodide
[6] = molecular target: T1, EPAC1; experiment: Rap1-GDP exchange (GEF) activity assay, EPAC1; settings: tested form: iodide

## CCCCc1ccc(NC(=O)CSc2nc(C3CCCCC3)c(C#N)c(=O)[nH]2)c(C)c1
[1]
  Relative Potency (RA): 39
  IC50: 1 µM

## Nc1ccc(Nc2ccc(N)cc2S(=O)(=O)O)cc1
[1]
  IC50: 18 µM

## COCCC[n+]1c(C)csc1Nc1c(C)cc(C)cc1C
[1]; tested form: iodide
  Relative Potency (RA): 57
  IC50: 0.67 µM
[2]
  cAMP-induced type I PKA holoenzyme activation: did not significantly alter
[3]
  cAMP-induced type II PKA holoenzyme activation: did not significantly alter
[4]
  007-AM induced Rap1 activation: significant reduction
[5]
  007-AM induced Rap1 activation: ineffective
[6]; cAMP-mediated Rap1-GDP exchange
  suppressing EPAC1 GEF activity: completely ineffective
[6]; suppressing EPAC1 GEF activity, 25 μM cAMP
  EPAC1 IC50: NMA*

## O=S(=O)(CS(=O)(=O)Oc1cc(Cl)cc(Cl)c1)Oc1cc(Cl)cc(Cl)c1
[1]
  Relative Potency (RA): 5.8
  IC50: 6.7 µM
